# scFv variants of Ab-14 (light chain) against a SARS-CoV-2 spike peptide

Source: Li et al. 2023 (doi:10.1038/s41467-023-39022-2), MIT Lincoln Laboratory and A-Alpha Bio; data file from the FLAb repository.

All variants were tested on one target, the spike HR2 peptide PDVDLGDISGINAS (SARS-CoV-2).

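The parent was found by panning a naive human phage display library on the peptide. These sequences belong to a second round, designed from the earlier measurements on random variants of the parent. Group labels follow the data file (Ctrl: baseline library sampled from a position-specific scoring matrix, with some repeated check sequences; Rand: our label for a block that the file lists under HC and that is probably the random mutants of the ten best first-round binders; En: ensemble of fine-tuned language models; GP: Gaussian process model; HC: hill climbing; Gen: genetic algorithm; Gibbs: Gibbs sampling; a sequence that several methods proposed may carry one label only). AlphaSeq pools MATa yeast showing the antibodies with MATalpha yeast showing the peptide. The frequency of each diploid, read from paired DNA barcodes, reflects how well the two displayed proteins bind. Scores were corrected for input abundance and mapped to Kd with protein pairs of known affinity run in the same pool. Each pool was mated in six replicate cultures.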

The variants keep the heavy chain, the linker and the frameworks of Ab-14 (scFv order VH, a 15-residue (Gly4Ser)3 linker, VL).
VH: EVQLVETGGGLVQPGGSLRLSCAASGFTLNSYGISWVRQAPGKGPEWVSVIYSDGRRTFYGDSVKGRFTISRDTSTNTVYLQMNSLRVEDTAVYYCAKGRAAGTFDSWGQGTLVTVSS
VL: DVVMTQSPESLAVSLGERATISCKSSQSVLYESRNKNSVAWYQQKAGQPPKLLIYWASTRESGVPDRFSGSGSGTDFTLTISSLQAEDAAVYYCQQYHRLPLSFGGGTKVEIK

The whole VL of each variant is written out. Values are apparent Kd, the geometric mean of the replicates that gave a signal; lower means stronger binding. Where no diploid with the target was found in any replicate, the entry reads "nd": below detection, most likely a poor binder, though not proof of it. Background: pairings of all light chain designs with three empty control strains gave a value in 4% of cases (median 430 nM, 5th percentile 38 nM). Values in that range, when seen in few replicates, are hard to tell from nonspecific mating. Of ten entries with the parent sequence, four were seen in most replicates (averages 2.2 nM to 240 nM), three in one and three in none, so single entries are noisy. The range of this assay differs from that of the first round, and the authors advise against merging the two. In the paper, a design with two or fewer of six values counts as a poor binder.

VL	group	Kd (apparent)	replicates with signal
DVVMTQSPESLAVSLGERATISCKVSQSELYESRNKNSVAWYQQKAGQPPKLLIYNASTRESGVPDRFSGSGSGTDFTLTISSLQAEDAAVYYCQQYHRLPLMFGGGTKVEIK	GP_Gen	330 pM	6/6
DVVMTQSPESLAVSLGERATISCKSSQAVLYEYRNKNSVAWYQQKAGQPPKLLIYWASTRESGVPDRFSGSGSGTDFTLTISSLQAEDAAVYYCQQYHRSPLSFGGGTKVEIK	Ctrl	nd	0/6
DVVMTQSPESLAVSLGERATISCKMNMAVSQDLMDEQSVAWYQQKAGQPPKLLIYDHMTEVTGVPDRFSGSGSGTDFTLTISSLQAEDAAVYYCQQYGRLPLSFGGGTKVEIK	En_Gibbs	nd	0/6
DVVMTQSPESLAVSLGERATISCKSSSSYLYESRNENSVAWYQQKAGQPPKLLIYEASTREQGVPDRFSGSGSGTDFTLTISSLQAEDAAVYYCQQYHRLPLSFGGGTKVEIK	GP_HC	1.1 nM	6/6
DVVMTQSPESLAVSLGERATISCIISGSMLMQSRNKNSVAWYQQKAGQPPKLLIYNAETREYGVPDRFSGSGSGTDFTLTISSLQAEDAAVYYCQHYDRLPLSFGGGTKVEIK	En_HC	34 nM	6/6
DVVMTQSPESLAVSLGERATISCKSSQQVLMESRNMNSVAWYQQKAGQPPKLLIYNASTREEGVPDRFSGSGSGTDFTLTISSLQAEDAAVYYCQQYHRLPLSFGGGTKVEIK	GP_Gibbs	330 pM	6/6
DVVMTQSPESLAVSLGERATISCKLMNSLDAFHQWEDNIAWYQQKAGQPPKLLIYETEIKVAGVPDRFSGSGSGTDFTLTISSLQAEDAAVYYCQQYYHLPLTFGGGTKVEIK	En_Gibbs	49 nM	6/6
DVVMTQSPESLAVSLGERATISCRIQEQMQKPDNIGQNVAWYQQKAGQPPKLLIYEAQTVIDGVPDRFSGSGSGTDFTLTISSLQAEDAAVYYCQQYAHLPLIFGGGTKVEIK	En_Gibbs	27 nM	6/6
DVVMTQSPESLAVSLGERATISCALSDWEWAGEENINAVAWYQQKAGQPPKLLIYDRSALEWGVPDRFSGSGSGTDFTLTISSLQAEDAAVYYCQQYGRLPLSFGGGTKVEIK	En_Gibbs	42 nM	6/6
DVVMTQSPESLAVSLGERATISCMISQVLNTLTRTGNNVAWYQQKAGQPPKLLIYDLTEREDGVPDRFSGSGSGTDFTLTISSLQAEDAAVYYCQQYFRLPLSFGGGTKVEIK	En_Gen	18 nM	6/6
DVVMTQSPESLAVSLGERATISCKMPQSNLYESRNKNSVAWYQQKAGQPPKLLIYNASQRESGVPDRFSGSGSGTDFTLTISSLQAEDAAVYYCQQYHRLPLSFGGGTKVEIK	GP_Gen	2.2 nM	6/6
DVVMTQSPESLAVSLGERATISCIVSQLMLWGWHAKNSIAWYQQKAGQPPKLLIYEAQTRLNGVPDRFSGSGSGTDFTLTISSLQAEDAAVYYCQQYDRLPLIFGGGTKVEIK	En_Gen	4.7 nM	4/6

Continued, with the values leading:

Kd (apparent)	replicates with signal	VL	group
630 pM	6/6	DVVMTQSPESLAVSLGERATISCKLPQSTLYESRNKNSVAWYQQKAGQPPKLLIYNASTREDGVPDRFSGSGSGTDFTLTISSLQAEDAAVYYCQQYHRLPLSFGGGTKVEIK	GP_Gen
nd	0/6	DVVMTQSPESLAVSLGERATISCKSSFSVLYESRNKNSVAWYQQKAGQPPKLLIYWASTRESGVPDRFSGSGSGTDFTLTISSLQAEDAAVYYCQGYHRLPLSFGGGTKVEIK	Ctrl
1.3 µM	2/6	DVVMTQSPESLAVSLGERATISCHSSPSGLYESRMKNSVTWYQQKAGQPPKLLIYNASCRESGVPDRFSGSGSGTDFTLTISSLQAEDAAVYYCQQYHRLPLSFGGGTKVEIK	Rand
1.3 nM	6/6	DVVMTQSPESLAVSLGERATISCKSSQSVLYESNNKNSVAWYQQKAGQPPKLLIYGATTRESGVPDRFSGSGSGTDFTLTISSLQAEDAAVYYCQQYHRLPLSFGGGTKVEIK	Ctrl
19 nM	5/6	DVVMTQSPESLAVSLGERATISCTLVGNIQGGGWMIKSVAWYQQKAGQPPKLLIYDAVQRVNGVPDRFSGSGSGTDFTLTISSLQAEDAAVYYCQQYYRLPLSFGGGTKVEIK	En_Gibbs
510 nM	1/6	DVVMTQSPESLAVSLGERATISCMLSDVTNGMARKHYSVAWYQQKAGQPPKLLIYDNSTREKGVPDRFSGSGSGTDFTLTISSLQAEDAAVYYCQQYDRLPLSFGGGTKVEIK	En_Gen
760 pM	6/6	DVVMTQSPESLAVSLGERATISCKLSQSVNYLSRVMNSVAWYQQKAGQPPKLLIYDNSTRGSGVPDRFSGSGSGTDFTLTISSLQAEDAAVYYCQQYFRLPLSFGGGTKVEIK	En_HC
2.4 nM	6/6	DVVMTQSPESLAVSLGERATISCKLMQSQLYESRNKNSVAWYQQKAGQPPKLLIYHASLREDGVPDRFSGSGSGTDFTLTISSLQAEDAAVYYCQQYHRLPLSFGGGTKVEIK	GP_HC
1.7 nM	6/6	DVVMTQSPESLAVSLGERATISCHISQMWFLESKNKNNVAWYQQKAGQPPKLLIYEENTREDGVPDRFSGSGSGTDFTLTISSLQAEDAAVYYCQSYFRLPLSFGGGTKVEIK	En_HC
15 nM	6/6	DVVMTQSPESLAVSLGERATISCMLGNKPTSFRNNKNAIAWYQQKAGQPPKLLIYDDEARTSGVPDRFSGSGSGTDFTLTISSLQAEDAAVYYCQQYDRLPLSFGGGTKVEIK	En_Gibbs
15 nM	3/6	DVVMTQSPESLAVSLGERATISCEVSQSVLYESRNHNSVAWYQQKAGQPPKLLIYWASTREVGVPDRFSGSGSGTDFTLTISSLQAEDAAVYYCQQYHRLPLSFGGGTKVEIK	Ctrl
32 nM	4/6	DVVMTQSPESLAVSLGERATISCKSSQSVLYESRNKNGVAWYQQKAGQPPKLLIYWGSTRESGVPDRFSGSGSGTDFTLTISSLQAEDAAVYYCQQYFRLPLSFGGGTKVEIK	Ctrl
750 pM	6/6	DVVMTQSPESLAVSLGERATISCKLSQSVLMESRNKNSVAWYQQKAGQPPKLLIYNASTRCSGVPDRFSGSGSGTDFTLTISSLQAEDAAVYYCQQYHRLPLSFGGGTKVEIK	GP_Gen

The 3 strongest on average among those seen in every replicate, once more:

VL	group	Kd (apparent)	replicates with signal
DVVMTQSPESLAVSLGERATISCKSSQQVLMESRNMNSVAWYQQKAGQPPKLLIYNASTREEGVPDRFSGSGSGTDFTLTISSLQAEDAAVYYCQQYHRLPLSFGGGTKVEIK	GP_Gibbs	330 pM	6/6
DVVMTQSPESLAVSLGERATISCKVSQSELYESRNKNSVAWYQQKAGQPPKLLIYNASTRESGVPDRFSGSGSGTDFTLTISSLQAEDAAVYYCQQYHRLPLMFGGGTKVEIK	GP_Gen	330 pM	6/6
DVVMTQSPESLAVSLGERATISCKLPQSTLYESRNKNSVAWYQQKAGQPPKLLIYNASTREDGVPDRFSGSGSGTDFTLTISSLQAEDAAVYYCQQYHRLPLSFGGGTKVEIK	GP_Gen	630 pM	6/6